Columns and labels:
[1] = In vitro penetration rate across isolated human skin in modified Franz cells (HPLC); conditions: for In vitro Penetration Rate (apparent flux), HPP/HPC: 2 mL, Franz cells, HPP/HPC column; for In vitro Penetration Rate (apparent flux), HPP/HPC / In vitro Penetration Rate (apparent flux), Parent compound: 20% in 0.2 M phosphate buffer pH 7.4, isolated human skin; for In vitro Penetration Rate (apparent flux), Parent compound: parent compound column, lowest detectable flux 1 μg/cm^2/h; for apparent flux value: parent drugs, at lowest detectable value, considered not detectable
[2] = Conversion of HPPs/HPCs to parent drugs: incubation with whole blood, hydrolysis products by HPLC; assay type: in vitro ADME, human; conditions: 20 mg in 1 mL whole blood, 30 min, 37° C.
Procedure: Peptide HPPs/HPCs converted to the parent peptides or peptide-related compounds quickly in good yield in human plasma.
A peptide HPP/HPC (20 mg) was incubated with whole blood (1 mL) for 30 min at 37° C. and analyzed by HPLC.

| Substance | In vitro Penetration Rate (apparent flux), HPP/HPC [1] [mg/cm^2/h] | Hydrolysis products: Amount of Parent drug [2] [%] | Hydrolysis products: Amount of Peptide HPP/HPC [2] [%] | Hydrolysis products: Amount of other side products (amino acids, dipeptides, tripeptides, tetrapeptides) [2] [%] | In vitro Penetration Rate (apparent flux), Parent compound [1] [mg/cm^2/h] | other results |
| --- | --- | --- | --- | --- | --- | --- |
| Ac-Tyr(Ac)-Gly-Gly-Phe-Met-OCH2CH2N(CH2CH3)2.HCl | 0.52 | 60 | 3 | 27 |  | Hydrolysis products: Amount of Ac-Tyr-Gly-Gly-Phe-Met-OCH2CH2N(CH2CH3)2•HCl [2]: 2%; Hydrolysis products: Amount of Ac-Tyr-Gly-Gly-Phe-Met-OH [2]: 8% |
| Ac-Tyr-Gly-Gly-Phe-Met-OH |  |  |  |  | 0.001 |  |
| Ac-Val-Pro-Gly-Pro-Arg(diAc)-OCH2CH2N(CH2CH3)2.HCl | 0.60 |  |  |  |  |  |
| H-Val-Pro-Gly-Pro-Arg-OH |  |  |  |  | 0.001 | apparent flux value [1]: 1 μg/cm^2/h |
| HCl.(CH3)2NCH2CH2CH2CO-Tyr(Ac)-Gly-Gly-Phe-Met-OCH2CH2CH2CH3 | 0.55 | 55 | 5 | 24 |  | Hydrolysis products: Amount of (CH3)2NCH2CH2CH2CO-Tyr-Gly-Gly-Phe-Met-OCH2CH2CH2CH3 [2]: 6%; Hydrolysis products: Amount of (CH3)2NCH2CH2CH2CO-Tyr-Gly-Gly-Phe-Met-OH [2]: 10% |
| cyclo(1,6)-Ac-Nle-Asp-His-D-Phe(4-I)-Arg-Trp-Lys-NH2 |  |  |  |  | 0.001 |  |
| cyclo(1,6)-Ac-Nle-Asp-His-Phe-Arg(diAc)-Trp-Lys-OCH2CH2N(CH2CH3)2.HCl | 0.46 | 45 | 4 | 33 |  | Hydrolysis products: Amount of cyclo(1,6)-Ac-Nle-Asp-His-Phe-Arg(Ac)-Trp-Lys-OCH2CH2N(CH2CH3)2•HCl [2]: 8%; Hydrolysis products: Amount of cyclo(1,6)-Nle-Asp-His-Phe-Arg-Trp-Lys-OH [2]: 10% |
| cyclo(1,6)-Ac-Nle-Asp-His-Phe-Arg-Trp-Lys-OH |  |  |  |  | 0.001 | apparent flux value [1]: 1 μg/cm^2/h |
| cyclo(1,6)-H-Nle-Asp-His-D-Ala(2-naphthyl)-Arg(NO2)-Trp-Lys-NH2.HCl | 0.50 |  |  |  |  |  |
| cyclo(1,6)-H-Nle-Asp-His-D-Phe(4-I)-Arg(Ac)-Trp-Lys-NH2.HCl | 0.34 |  |  |  |  |  |
